Experimental findings from patent US8754071B2 (priority 2011, dated 2014) are described below.

Protein sequences, listed by entry. Tags and fused reporters are not part of them. Residues count along the entry.
UniProt P10721, 26-976 limits assumed: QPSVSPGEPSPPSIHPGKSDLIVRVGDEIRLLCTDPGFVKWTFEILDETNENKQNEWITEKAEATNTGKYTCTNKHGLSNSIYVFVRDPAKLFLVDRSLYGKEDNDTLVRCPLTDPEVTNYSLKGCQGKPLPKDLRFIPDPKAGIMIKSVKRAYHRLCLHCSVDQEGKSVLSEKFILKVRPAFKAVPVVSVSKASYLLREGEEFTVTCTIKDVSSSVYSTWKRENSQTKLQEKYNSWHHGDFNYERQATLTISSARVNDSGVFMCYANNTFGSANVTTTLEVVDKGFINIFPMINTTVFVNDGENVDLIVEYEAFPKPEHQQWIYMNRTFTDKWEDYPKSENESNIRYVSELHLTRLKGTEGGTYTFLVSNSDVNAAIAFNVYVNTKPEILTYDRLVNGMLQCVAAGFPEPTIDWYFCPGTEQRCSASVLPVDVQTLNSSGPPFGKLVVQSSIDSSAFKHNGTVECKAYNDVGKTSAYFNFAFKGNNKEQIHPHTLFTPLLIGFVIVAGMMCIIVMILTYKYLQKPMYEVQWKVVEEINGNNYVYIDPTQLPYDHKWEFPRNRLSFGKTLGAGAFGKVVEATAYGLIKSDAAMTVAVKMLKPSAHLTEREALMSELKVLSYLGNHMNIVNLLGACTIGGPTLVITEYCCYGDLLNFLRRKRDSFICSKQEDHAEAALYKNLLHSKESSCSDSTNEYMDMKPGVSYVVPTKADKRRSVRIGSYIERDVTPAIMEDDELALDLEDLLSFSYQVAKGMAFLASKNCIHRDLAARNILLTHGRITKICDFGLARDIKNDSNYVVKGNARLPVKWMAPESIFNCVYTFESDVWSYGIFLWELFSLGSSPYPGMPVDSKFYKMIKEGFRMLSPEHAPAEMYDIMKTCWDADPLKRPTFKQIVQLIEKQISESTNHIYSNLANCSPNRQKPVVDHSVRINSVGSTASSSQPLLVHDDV

This experiment deals with c-kit (Homo sapiens, UniProt P10721). In words: Mo7e cell proliferation assay (SCF dependent proliferation). Format: cell-based. The note with it: read-out: c-kit (Mo7e) μM; Table 2; human Mo7e cells stimulated with SCF, 48 hours, CellTiter Glo; 1% FBS. On the procedure:
Mo7e Cell Proliferation Assay The compounds of Table 1 and Table 2 were tested for inhibition of SCF dependent proliferation using human Mo7e cells which endogenously express c-kit in a 384 well format. […] After 48 hours of incubation at 37° C., cell viability was measured by adding 25 uL of CellTiter Glo (Promega) to the cells and the luminescence was measured by a […] camera (Molecular Devices). […] The IC50 value is given as that concentration of the test compound in question that provoke a response halfway between the baseline and maximum responses.
For orientation: Cellular ATP, detected with luciferase, serves as a proxy for viable cell number.

Molecules are shown by their SMILES.

Turning to `Cc1ccc(-c2noc(CN3CC(C#N)C3)n2)cc1NC(=O)c1cnc2ccc(-c3cnn(CC(C)(C)O)c3)cn12`, the IC50 was 0.146 µM.
